Measured values as given in US20140100156A1 (SANOFI, priority 2012, published 2014).

Amino acid sequences for entries named in this document (tags omitted). Residues count along the entry.
UniProt P47871, 26-477: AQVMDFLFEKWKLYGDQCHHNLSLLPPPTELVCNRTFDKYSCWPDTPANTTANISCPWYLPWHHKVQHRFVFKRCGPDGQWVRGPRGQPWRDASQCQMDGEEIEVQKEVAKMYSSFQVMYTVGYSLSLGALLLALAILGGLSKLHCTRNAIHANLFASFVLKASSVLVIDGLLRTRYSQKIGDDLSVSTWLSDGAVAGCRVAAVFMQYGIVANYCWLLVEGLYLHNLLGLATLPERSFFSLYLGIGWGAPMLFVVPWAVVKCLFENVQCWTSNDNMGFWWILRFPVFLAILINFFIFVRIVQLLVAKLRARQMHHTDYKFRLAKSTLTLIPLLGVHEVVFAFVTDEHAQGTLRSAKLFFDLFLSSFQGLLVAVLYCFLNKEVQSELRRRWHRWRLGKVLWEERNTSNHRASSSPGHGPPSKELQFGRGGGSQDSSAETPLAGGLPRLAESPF
UniProt P43220, 24-463: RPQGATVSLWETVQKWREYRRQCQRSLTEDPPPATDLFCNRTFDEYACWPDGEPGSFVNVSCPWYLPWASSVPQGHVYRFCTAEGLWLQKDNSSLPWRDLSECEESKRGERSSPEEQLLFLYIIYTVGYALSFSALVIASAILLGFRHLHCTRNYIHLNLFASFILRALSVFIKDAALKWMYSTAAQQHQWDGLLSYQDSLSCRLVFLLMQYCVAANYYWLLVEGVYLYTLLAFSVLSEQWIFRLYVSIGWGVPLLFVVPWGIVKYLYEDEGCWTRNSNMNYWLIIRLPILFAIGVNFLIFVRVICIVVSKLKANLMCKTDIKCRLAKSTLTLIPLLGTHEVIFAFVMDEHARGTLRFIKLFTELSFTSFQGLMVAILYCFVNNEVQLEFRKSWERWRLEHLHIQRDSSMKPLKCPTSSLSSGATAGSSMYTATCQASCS

Columns and labels:
human glucagon receptor = target: T1, human glucagon receptor (Homo sapiens, UniProt P47871); assay: cAMP response (HTRF) of HEK-293 cells stably expressing human glucagon receptor; type: cell-based; details: Table 5; cAMP, HEK-293; read-out: EC50 hGlucagon-R
T1 construct: expressed in transfected cells; host or cells: HEK-293

human GLP-1 receptor = target: T2, human GLP-1 receptor (Homo sapiens, UniProt P43220); assay: cAMP response (HTRF) of HEK-293 cells stably expressing human GLP-1 receptor; type: cell-based; details: Table 5; cAMP, HEK-293; read-out: EC50 hGLP-1R
T2 construct: expressed in transfected cells; host or cells: HEK-293

Row | SMILES | EC50 (human glucagon receptor) | EC50 (human GLP-1 receptor)
1 | CCCCCCCCCCCCCCCC(=O)N[C@@H](CCC(=O)NCCCC[C@H](NC(=O)[C@H](CCC(N)=O)NC(=O)[C@H](CCCCN)NC(=O)[C@H](CO)NC(=O)[C@H](CC(C)C)NC(=O)[C@H](CC(=O)O)NC(=O)[C@H](CO)NC(=O)[C@@H](NC(=O)[C@H](Cc1ccccc1)NC(=O)[C@@H](NC(=O)CNC(=O)[C@H](CCC(N)=O)NC(=O)C(C)(C)NC(=O)[C@@H](N)Cc1c[nH]cn1)[C@@H](C)O)[C@@H](C)O)C(=O)N[C@@H](CCC(=O)O)C(=O)N[C@@H](CO)C(=O)NC(C)(C)C(=O)N[C@@H](C)C(=O)N[C@@H](C)C(=O)N[C@@H](CCC(N)=O)C(=O)N[C@@H](CC(=O)O)C(=O)N[C@@H](Cc1ccccc1)C(=O)N[C@H](C(=O)N[C@@H](CCC(=O)O)C(=O)N[C@@H](Cc1c[nH]c2ccccc12)C(=O)N[C@@H](CC(C)C)C(=O)N[C@@H](CCCCN)C(=O)N[C@@H](C)C(=O)NCC(=O)NCC(=O)N1CCC[C@H]1C(=O)N[C@@H](CO)C(=O)N[C@@H](CO)C(=O)NCC(=O)N[C@@H](C)C(=O)N1CCC[C@H]1C(=O)N1CCC[C@H]1C(=O)N1CCC[C@H]1C(=O)N[C@@H](CO)C(N)=O)[C@@H](C)CC)C(=O)O [compound 13] | 0.281 nM | 0.0031 nM
2 | CCCCCCCCCCCCCCCC(=O)N[C@@H](CCC(=O)NCCCC[C@H](NC(=O)[C@H](CCC(N)=O)NC(=O)[C@H](CCCCN)NC(=O)[C@H](CO)NC(=O)[C@H](CC(C)C)NC(=O)[C@H](CC(=O)O)NC(=O)[C@H](CO)NC(=O)[C@@H](NC(=O)[C@H](Cc1ccccc1)NC(=O)[C@@H](NC(=O)CNC(=O)[C@H](CCC(N)=O)NC(=O)[C@@H](CO)NC(=O)[C@@H](N)Cc1c[nH]cn1)[C@@H](C)O)[C@@H](C)O)C(=O)N[C@@H](CCC(=O)O)C(=O)N[C@@H](CO)C(=O)NC(C)(C)C(=O)N[C@@H](C)C(=O)N[C@@H](C)C(=O)N[C@@H](CCC(N)=O)C(=O)N[C@@H](CC(=O)O)C(=O)N[C@@H](Cc1ccccc1)C(=O)N[C@H](C(=O)N[C@@H](CCC(=O)O)C(=O)N[C@@H](Cc1c[nH]c2ccccc12)C(=O)N[C@@H](CC(C)C)C(=O)N[C@@H](CCCCN)C(=O)N[C@@H](C)C(=O)NCC(=O)NCC(=O)N1CCC[C@H]1C(=O)N[C@@H](CO)C(=O)N[C@@H](CO)C(=O)NCC(=O)N[C@@H](C)C(=O)N1CCC[C@H]1C(=O)N1CCC[C@H]1C(=O)N1CCC[C@H]1C(=O)N[C@@H](CO)C(N)=O)[C@@H](C)CC)C(=O)O [compound 14] | 0.0947 nM | 0.0046 nM
3 | CCCCCCCCCCCCCCCC(=O)N[C@@H](CCC(=O)NCCCC[C@H](NC(=O)[C@H](CCC(N)=O)NC(=O)[C@H](CCCCN)NC(=O)[C@H](CO)NC(=O)[C@H](CC(C)C)NC(=O)[C@H](CC(=O)O)NC(=O)[C@H](CO)NC(=O)[C@@H](NC(=O)[C@H](Cc1ccccc1)NC(=O)[C@@H](NC(=O)CNC(=O)[C@H](CCC(N)=O)NC(=O)[C@@H](CO)NC(=O)[C@@H](N)Cc1c[nH]cn1)[C@@H](C)O)[C@@H](C)O)C(=O)N[C@@H](CCC(=O)O)C(=O)N[C@@H](CO)C(=O)NC(C)(C)C(=O)N[C@@H](C)C(=O)N[C@@H](C)C(=O)N[C@@H](CCC(N)=O)C(=O)N[C@@H](CC(C)C)C(=O)N[C@@H](Cc1ccccc1)C(=O)N[C@H](C(=O)N[C@@H](CCC(=O)O)C(=O)N[C@@H](Cc1c[nH]c2ccccc12)C(=O)N[C@@H](CC(C)C)C(=O)N[C@@H](CCCCN)C(=O)N[C@@H](C)C(=O)NCC(=O)NCC(=O)N1CCC[C@H]1C(=O)N[C@@H](CO)C(=O)N[C@@H](CO)C(=O)NCC(=O)N[C@@H](C)C(=O)N1CCC[C@H]1C(=O)N1CCC[C@H]1C(=O)N1CCC[C@H]1C(=O)N[C@@H](CO)C(N)=O)[C@@H](C)CC)C(=O)O [compound 15] | 0.176 nM | 0.0066 nM
4 | CCCCCCCCCCCCCCCC(=O)N[C@@H](CCC(=O)NCCCC[C@H](NC(=O)[C@H](CCC(N)=O)NC(=O)[C@H](CCCCN)NC(=O)[C@H](CO)NC(=O)[C@H](CC(C)C)NC(=O)[C@H](CC(=O)O)NC(=O)[C@H](CO)NC(=O)[C@@H](NC(=O)[C@H](Cc1ccccc1)NC(=O)[C@@H](NC(=O)CNC(=O)[C@H](CCC(N)=O)NC(=O)[C@@H](CO)NC(=O)[C@@H](N)Cc1c[nH]cn1)[C@@H](C)O)[C@@H](C)O)C(=O)N[C@@H](CCC(=O)O)C(=O)N[C@@H](CCC(=O)O)C(=O)N[C@@H](CCC(=O)O)C(=O)N[C@@H](C)C(=O)N[C@@H](C)C(=O)N[C@@H](CCC(N)=O)C(=O)N[C@@H](CC(=O)O)C(=O)N[C@@H](Cc1ccccc1)C(=O)N[C@H](C(=O)N[C@@H](CCC(=O)O)C(=O)N[C@@H](Cc1c[nH]c2ccccc12)C(=O)N[C@@H](CC(C)C)C(=O)N[C@@H](CCCCN)C(=O)N[C@@H](C)C(=O)NCC(=O)NCC(=O)N1CCC[C@H]1C(=O)N[C@@H](CO)C(=O)N[C@@H](CO)C(=O)NCC(=O)N[C@@H](C)C(=O)N1CCC[C@H]1C(=O)N1CCC[C@H]1C(=O)N1CCC[C@H]1C(=O)N[C@@H](CO)C(N)=O)[C@@H](C)CC)C(=O)O [compound 16] | 0.117 nM | 0.0028 nM
5 | CCCCCCCCCCCCCCCC(=O)N[C@@H](CCC(=O)NCCCC[C@H](NC(=O)[C@H](CCC(N)=O)NC(=O)[C@H](CCCCN)NC(=O)[C@H](CO)NC(=O)[C@H](CC(C)C)NC(=O)[C@H](CC(=O)O)NC(=O)[C@H](CO)NC(=O)[C@@H](NC(=O)[C@H](Cc1ccccc1)NC(=O)[C@@H](NC(=O)CNC(=O)[C@H](CCC(N)=O)NC(=O)[C@@H](CO)NC(=O)[C@@H](N)Cc1c[nH]cn1)[C@@H](C)O)[C@@H](C)O)C(=O)N[C@@H](CCC(=O)O)C(=O)N[C@@H](CCC(=O)O)C(=O)N[C@@H](CCC(=O)O)C(=O)N[C@@H](C)C(=O)N[C@@H](C)C(=O)N[C@@H](CCCCN)C(=O)N[C@@H](CC(=O)O)C(=O)N[C@@H](Cc1ccccc1)C(=O)N[C@H](C(=O)N[C@@H](CCC(=O)O)C(=O)N[C@@H](Cc1c[nH]c2ccccc12)C(=O)N[C@@H](CC(C)C)C(=O)N[C@@H](CCCCN)C(=O)N[C@@H](C)C(=O)NCC(=O)NCC(=O)N1CCC[C@H]1C(=O)N[C@@H](CO)C(=O)N[C@@H](CO)C(=O)NCC(=O)N[C@@H](C)C(=O)N1CCC[C@H]1C(=O)N1CCC[C@H]1C(=O)N1CCC[C@H]1C(=O)N[C@@H](CO)C(N)=O)[C@@H](C)CC)C(=O)O [compound 17] | 0.0931 nM | 0.0017 nM
6 | CCCCCCCCCCCCCCCC(=O)N[C@@H](CCC(=O)NCCCC[C@H](NC(=O)[C@H](CCC(N)=O)NC(=O)[C@H](CCCCN)NC(=O)[C@H](CO)NC(=O)[C@H](CC(C)C)NC(=O)[C@H](CC(=O)O)NC(=O)[C@H](CO)NC(=O)[C@@H](NC(=O)[C@H](Cc1ccccc1)NC(=O)[C@@H](NC(=O)CNC(=O)[C@H](CCC(N)=O)NC(=O)[C@@H](CO)NC(=O)[C@@H](N)Cc1c[nH]cn1)[C@@H](C)O)[C@@H](C)O)C(=O)N[C@@H](CCC(=O)O)C(=O)N[C@@H](CCC(=O)O)C(=O)N[C@@H](CCC(=O)O)C(=O)N[C@@H](C)C(=O)N[C@@H](C)C(=O)NC(C)(C)C(=O)N[C@@H](CC(=O)O)C(=O)N[C@@H](Cc1ccccc1)C(=O)N[C@H](C(=O)N[C@@H](CCC(=O)O)C(=O)N[C@@H](Cc1c[nH]c2ccccc12)C(=O)N[C@@H](CC(C)C)C(=O)N[C@@H](CCCCN)C(=O)N[C@@H](C)C(=O)NCC(=O)NCC(=O)N1CCC[C@H]1C(=O)N[C@@H](CO)C(=O)N[C@@H](CO)C(=O)NCC(=O)N[C@@H](C)C(=O)N1CCC[C@H]1C(=O)N1CCC[C@H]1C(=O)N1CCC[C@H]1C(=O)N[C@@H](CO)C(N)=O)[C@@H](C)CC)C(=O)O [compound 18] | 0.152 nM | 0.0026 nM
7 | CCCCCCCCCCCCCCCC(=O)N[C@@H](CCC(=O)NCCCC[C@H](NC(=O)[C@H](CCC(N)=O)NC(=O)[C@H](CCCCN)NC(=O)[C@H](CO)NC(=O)[C@H](CC(C)C)NC(=O)[C@H](CC(=O)O)NC(=O)[C@H](CO)NC(=O)[C@@H](NC(=O)[C@H](Cc1ccccc1)NC(=O)[C@@H](NC(=O)CNC(=O)[C@H](CCC(N)=O)NC(=O)[C@@H](CO)NC(=O)[C@@H](N)Cc1c[nH]cn1)[C@@H](C)O)[C@@H](C)O)C(=O)N[C@@H](CCC(=O)O)C(=O)N[C@@H](CCC(=O)O)C(=O)N[C@@H](CCC(=O)O)C(=O)N[C@@H](C)C(=O)N[C@@H](C)C(=O)N[C@@H](CCCCN)C(=O)N[C@@H](CC(C)C)C(=O)N[C@@H](Cc1ccccc1)C(=O)N[C@H](C(=O)N[C@@H](CCC(=O)O)C(=O)N[C@@H](Cc1c[nH]c2ccccc12)C(=O)N[C@@H](CC(C)C)C(=O)N[C@@H](CCCCN)C(=O)N[C@@H](C)C(=O)NCC(=O)NCC(=O)N1CCC[C@H]1C(=O)N[C@@H](CO)C(=O)N[C@@H](CO)C(=O)NCC(=O)N[C@@H](C)C(=O)N1CCC[C@H]1C(=O)N1CCC[C@H]1C(=O)N1CCC[C@H]1C(=O)N[C@@H](CO)C(N)=O)[C@@H](C)CC)C(=O)O [compound 19] | 0.104 nM | 0.0019 nM
8 | CCCCCCCCCCCCCCCC(=O)N[C@@H](CCC(=O)NCCCC[C@H](NC(=O)[C@H](CCC(N)=O)NC(=O)[C@H](CCCCN)NC(=O)[C@H](CO)NC(=O)[C@H](CC(C)C)NC(=O)[C@H](CC(=O)O)NC(=O)[C@H](CO)NC(=O)[C@@H](NC(=O)[C@H](Cc1ccccc1)NC(=O)[C@@H](NC(=O)CNC(=O)[C@H](CCC(N)=O)NC(=O)[C@@H](CO)NC(=O)[C@@H](N)Cc1c[nH]cn1)[C@@H](C)O)[C@@H](C)O)C(=O)N[C@@H](CCC(=O)O)C(=O)N[C@@H](CO)C(=O)N[C@@H](CCC(=O)O)C(=O)N[C@@H](C)C(=O)N[C@@H](C)C(=O)N[C@@H](CCC(N)=O)C(=O)N[C@@H](CC(=O)O)C(=O)N[C@@H](Cc1ccccc1)C(=O)N[C@H](C(=O)N[C@@H](CCC(=O)O)C(=O)N[C@@H](Cc1c[nH]c2ccccc12)C(=O)N[C@@H](CC(C)C)C(=O)N[C@@H](CCCCN)C(=O)N[C@@H](C)C(=O)NCC(=O)NCC(=O)N1CCC[C@H]1C(=O)N[C@@H](CO)C(=O)N[C@@H](CO)C(=O)NCC(=O)N[C@@H](C)C(=O)N1CCC[C@H]1C(=O)N1CCC[C@H]1C(=O)N1CCC[C@H]1C(=O)N[C@@H](CO)C(N)=O)[C@@H](C)CC)C(=O)O [compound 20] | 0.104 nM | 0.0038 nM
